The values below are quoted from earlier work in patent US8119808B2, “Tetrahydroquinoline derivatives as cannabinoid receptor modulators” (Bristol-Myers Squibb Company, priority 2003, dated 2012).

Amino acid sequences for entries named in this document (tags omitted).
UniProt P47746, whole entry: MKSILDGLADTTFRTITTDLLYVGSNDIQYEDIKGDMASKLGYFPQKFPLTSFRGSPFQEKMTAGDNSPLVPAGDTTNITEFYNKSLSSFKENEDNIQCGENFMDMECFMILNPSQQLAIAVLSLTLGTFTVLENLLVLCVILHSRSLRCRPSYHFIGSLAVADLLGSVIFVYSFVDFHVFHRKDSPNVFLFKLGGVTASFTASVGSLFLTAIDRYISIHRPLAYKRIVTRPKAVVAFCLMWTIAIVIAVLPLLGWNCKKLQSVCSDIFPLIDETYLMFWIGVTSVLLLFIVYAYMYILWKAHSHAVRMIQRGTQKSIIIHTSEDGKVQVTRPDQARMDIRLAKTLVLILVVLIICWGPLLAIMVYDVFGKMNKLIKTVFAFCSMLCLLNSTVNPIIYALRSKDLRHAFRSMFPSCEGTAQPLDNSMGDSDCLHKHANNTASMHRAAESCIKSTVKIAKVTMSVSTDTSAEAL

For the data set, the target named is CB-1 (Mus musculus, UniProt P47746). Particulars: chronic administration for two weeks; cited from earlier work.

For the substance AM-251, the “body weight and adipose tissue mass” value was “substantial body weight reduction and decreased adipose tissue mass”.
